{
  "source": "patent US7427627B2",
  "about": "“N-(4-(4-methylthiazol-5-yl) pyrimidin-2-yl)-N-phenylamines as antiproliferative compounds” (Cyclacel Limited, priority 2001, dated 2008)",
  "target": "T1, CDK2/cyclin E (Homo sapiens, UniProt P24941)",
  "T1 construct": "His6",
  "assay": "Kinase assay CDK2/cyclin E",
  "type": "biochemical",
  "conditions": "Table 1; read-out: Kinase inhibition, IC50 (μM) CDK2/E",
  "data": [
    {"molecule": "Cc1nc(N(C)C)sc1-c1ccnc(Nc2cccc([N+](=O)[O-])c2)n1", "note": "[Compound 52, [4-(2-Dimethylamino-4-methyl-thiazol-5-yl)-pyrimidin-2-yl]-(3-nitro-phenyl)-amine]", "values": [
      {"measurement": "IC50", "result": 0.12, "unit": "µM"}
    ]}
  ]
}
